# Experimental melting point values from OPERA 2.9

Data: OPERA 2.9 data sets, kmansouri/OPERA on GitHub.

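OPERA's authors assembled the values from existing databases and did not measure them anew. The files give a single number for a compound and property, which may rest on several reports. How each value was measured is not recorded, so precision varies. Where a salt, mixture or single isomer is drawn, the source does not say that exactly this form was tested. Some upstream entries may be estimates or bounds without being marked so.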

Melting points are in °C.
"–" marks a cell with nothing listed here.

structure (SMILES)	name	MP (°C)
c1ccc(-c2nnc(-c3ccc(-c4nnc(-c5ccccc5)c(-c5ccccc5)n4)cc3)nc2-c2ccccc2)cc1	–	321
Cc1nc(C)n(C)c1C	1,2,4,5-Tetramethyl-1H-imidazole	147.1
O=C(O)c1cccc2cccc(-c3cccc4cccc(C(=O)O)c34)c12	[1,1'-Binaphthalene]-8,8'-dicarboxylic acid	289
CCc1ccc(-c2ccc(B(O)O)c(F)c2)cc1	(4'-Ethyl-3-fluoro[1,1'-biphenyl]-4-yl)boronic acid	135.8
O=C1CCCCCCCCCCC1Cl (stereo unspecified)	2-Chlorocyclododecanone	58
CC(C)C(NC(N)=O)NC(N)=O	Isobutylidene diurea	206.2
Nc1ccnn1CC1CCCCC1	1-(cyclohexylmethyl)-1H-pyrazol-5-amine	60
COc1cc2nc(-c3ccccc3)nc(Cl)c2cc1OC	4-chloro-6,7-dimethoxy-2-phenylquinazoline	133
Nc1cc(Br)cnc1Cl	5-Bromo-2-chloropyridin-3-amine	130.5
C=CC(=O)OCC(C)OCCOCC(CC)(COCCOCC(C)OC(=O)C=C)COCCOC(C)COC(=O)C=C (stereo unspecified)	–	-67
N#Cc1cc([N+](=O)[O-])c[nH]c1=O	2-Hydroxy-5-nitronicotinonitrile	260
C=C(C)C(=O)OCCCCCCOc1ccc(/C=C/C(=O)OC)cc1	–	52.25
CC(C)OC(=O)C1(S(=O)(=O)c2ccccc2)CCC1	–	50.8
O=C(C(Cl)c1ccccc1)N1CCCCC1 (stereo unspecified)	1-[chloro(phenyl)acetyl]piperidine	68.5
O=C(c1ccc(Cl)cc1)N1CCNCC1	(4-Chlorophenyl)(piperazin-1-yl)methanone	81
CCOC(=O)Cc1cnc(C)nc1Cl	(6-Chloro-2-methyl-5-pyrimidyl)acetic acid, ethyl ester	35.5
CCCCCCCCCCCCCCCC(=O)OCCOc1cccc(OCCOC(=O)CCCCCCCCCCCCCCC)c1	–	83.58
NC(=O)NCC(F)(F)F	N-(2,2,2-Trifluoroethyl)urea	111
O=C(O)CNc1nc2ccccc2s1	2-(1,3-benzothiazol-2-ylamino)acetic acid	175
Nc1ccc(Cc2nc3ccccc3s2)cc1	4-(1,3-benzothiazol-2-ylmethyl)aniline	220
NC(=O)NCc1ccco1	N-(2-Furylmethyl)urea	121
C=CC(=O)OC1CC(C)CC(C)(C)C1 (stereo unspecified)	2-Propenoic acid, 3,3,5-trimethylcyclohexyl ester	-94.8
O=C(O)CC1Sc2ccc(Cl)cc2NC1=O (stereo unspecified)	–	241
O=C(O)Cc1cc(=O)[nH]c(=O)[nH]1	–	325
COc1cc2c(cc1OC)CC(=O)N(CCC1OCCO1)C=C2	–	139
O=C(O)CCCSc1nc2ccccc2s1	–	104
ClCc1nc(Cl)c2c3c(sc2n1)CCCC3	–	90
COc1ccc(-c2noc(CCl)n2)cc1OC	5-(chloromethyl)-3-(3,4-dimethoxyphenyl)-1,2,4-oxadiazole	102
CC(=O)OC[C@@H]1O[C@H](n2cc(C)c(=O)[nH]c2=O)C[C@H]1OC(C)=O	–	125
Cc1ccc(NC(=N)O)cc1C	N-(3,4-Dimethylphenyl)carbamimidic acid	171
NCC(c1cccs1)c1c[nH]c2ccccc12 (stereo unspecified)	2-(1H-indol-3-yl)-2-thien-2-ylethanamine	146
CC(C)(C)C(=O)OC[C@H]1O[C@H](Br)[C@H](OC(=O)C(C)(C)C)[C@@H](OC(=O)C(C)(C)C)[C@@H]1OC(=O)C(C)(C)C	–	147.5
O=C1CCc2cc(C(=O)O)ccc2N1	2-oxo-1,2,3,4-tetrahydroquinoline-6-carboxylic acid	262
CCOC(=O)c1sc2nc(CCl)[nH]c(=O)c2c1C	–	191
CC(C)c1ccc(C(=O)O)c(C(C)C)c1	2,4-diisopropylbenzoic acid	100
COc1ccc(-c2n[nH]c(=S)[nH]c2=O)cc1	–	285
CCn1c(O)c(N=Nc2ccccc2[N+](=O)[O-])c(C)c(C#N)c1=O	–	260
O=C(O)c1cc(Br)nn1-c1ncccc1Cl	–	199
NC(=O)c1ccc(S(N)(=O)=O)cc1	p-Sulphamoylbenzamide	244
CNC(=O)c1ccc(OC)c(N)c1	3-Amino-4-methoxy-N-methylbenzamide	143
CC1=NN(c2ccccc2)C(=O)C1=CC1C(=O)N(c2ccccc2)N=C1C (stereo unspecified)	–	183
O=c1[nH]c2ccccc2n1CCCCl	1-(3-Chloropropyl)-1,3-dihydro-2H-benzimidazol-2-one	114.7

A selection of 6 entries from above:

| structure (SMILES) | name | MP (°C) |
|---|---|---|
| C=CC(=O)OCC(C)OCCOCC(CC)(COCCOCC(C)OC(=O)C=C)COCCOC(C)COC(=O)C=C (stereo unspecified) | – | -67 |
| Nc1ccc(Cc2nc3ccccc3s2)cc1 | 4-(1,3-benzothiazol-2-ylmethyl)aniline | 220 |
| CC(C)C(NC(N)=O)NC(N)=O | Isobutylidene diurea | 206.2 |
| O=C(O)c1cccc2cccc(-c3cccc4cccc(C(=O)O)c34)c12 | [1,1'-Binaphthalene]-8,8'-dicarboxylic acid | 289 |
| ClCc1nc(Cl)c2c3c(sc2n1)CCCC3 | – | 90 |
| COc1cc2c(cc1OC)CC(=O)N(CCC1OCCO1)C=C2 | – | 139 |